Legend:
[1] = molecular target: CYP2D6 (Homo sapiens, UniProt P10635); assay: CYP450 panel inhibition in human liver microsomes, 2D6 (dextromethorphan); settings: 10 μM, substrate dextromethorphan
[2] = molecular target: CYP2C9 (Homo sapiens, UniProt P11712); assay: CYP450 panel inhibition in human liver microsomes, 2C9 (diclofenac); settings: 10 μM, substrate diclofenac
[3] = molecular target: CYP3A4 (Homo sapiens, UniProt P08684); assay: CYP450 panel inhibition in human liver microsomes, 3A4 (midazolam / testosterone); settings: 10 μM; for CYP-3A4 (Midazolam) mean percentage CYP inhibition: substrate midazolam; for CYP-3A4 (Testosterone) mean percentage CYP inhibition: substrate testosterone
[4] = Plasma stability, rat plasma (Wistar Han / wistar hannover; Table 5 head SD Rat); format: in vitro ADME; settings: 2 μM, anti-coagulant K2-EDTA; for % Remaining at T120: 120 min
[5] = molecular target: hERG channel (Homo sapiens, UniProt Q12809); settings: read-out: IC50 (μM), hERG ion channel block; Example 46; 5 min exposure per concentration
[6] = test system: balb/c mouse hepatocytes; assay: Hepatocyte stability, balb/c mouse; format: in vitro ADME; settings: 2 μM, 0.5 million cells/ml
[7] = Plasma stability, beagle dog plasma (K2EDTA); format: in vitro ADME; settings: 2 μM, anti-coagulant K2-EDTA; for % Remaining at T120: 120 min
[8] = test system: wistar hannover rat hepatocytes; assay: Hepatocyte stability, wistar hannover rat; format: in vitro ADME; settings: 2 μM, 0.5 million cells/ml
[9] = molecular target: CYP1A2 (Homo sapiens, UniProt P05177); assay: CYP450 panel inhibition in human liver microsomes, 1A2 (phenacetin); settings: 10 μM, substrate phenacetin
[10] = Mouse pharmacokinetics (oral cassette dosing), plasma; settings: BALB/c immunocompetent mice, 5 mg/kg p.o.
[11] = Plasma stability, cynomolgus monkey plasma (K2-EDTA); settings: 2 μM, anti-coagulant K2-EDTA; for % Remaining at T120: 120 min
[12] = molecular target: CYP2B6 (Homo sapiens, UniProt P20813); assay: CYP450 panel inhibition in human liver microsomes, 2B6 (bupropion); settings: 10 μM, substrate bupropion
[13] = Kinetic solubility (PBS pH 7.4; 4 hr); settings: free base (Table 19)
[14] = Plasma stability, mouse plasma (Balb/c; Table 5 head CD-1 Mouse); format: in vitro ADME; settings: 2 μM, anti-coagulant K2-EDTA; for % Remaining at T120: 120 min
[15] = molecular target: CYP2C8 (Homo sapiens, UniProt P10632); assay: CYP450 panel inhibition in human liver microsomes, 2C8 (amodiaquine); settings: 10 μM, substrate amodiaquine
[16] = test system: beagle dog hepatocytes; assay: Hepatocyte stability, beagle dog; format: in vitro ADME; settings: 2 μM, 0.5 million cells/ml
[17] = test system: cynomolgus monkey hepatocytes; assay: Hepatocyte stability, cynomolgus monkey; format: in vitro ADME; settings: 2 μM, 0.5 million cells/ml
[18] = test system: Caco-2 cells; assay: Caco-2 bidirectional permeability (absorption & efflux); settings: Example 47
[19] = Plasma stability, human plasma (K2EDTA); format: in vitro ADME; settings: 2 μM, anti-coagulant K2-EDTA; for T1/2: 10 to 120 min; for % Remaining at T120: 120 min
[20] = molecular target: CYP2C19 (Homo sapiens, UniProt P33261); assay: CYP450 panel inhibition in human liver microsomes, 2C19 (mephenytoin); settings: 10 μM, substrate mephenytoin
[21] = test system: human hepatocytes; assay: Hepatocyte stability, human; format: in vitro ADME; settings: 2 μM, 0.5 million cells/ml; for % Remaining At T120 / T1/2: 120 min

Chains of the proteins cited; added tags and fusions are not shown.
UniProt P10635, whole entry: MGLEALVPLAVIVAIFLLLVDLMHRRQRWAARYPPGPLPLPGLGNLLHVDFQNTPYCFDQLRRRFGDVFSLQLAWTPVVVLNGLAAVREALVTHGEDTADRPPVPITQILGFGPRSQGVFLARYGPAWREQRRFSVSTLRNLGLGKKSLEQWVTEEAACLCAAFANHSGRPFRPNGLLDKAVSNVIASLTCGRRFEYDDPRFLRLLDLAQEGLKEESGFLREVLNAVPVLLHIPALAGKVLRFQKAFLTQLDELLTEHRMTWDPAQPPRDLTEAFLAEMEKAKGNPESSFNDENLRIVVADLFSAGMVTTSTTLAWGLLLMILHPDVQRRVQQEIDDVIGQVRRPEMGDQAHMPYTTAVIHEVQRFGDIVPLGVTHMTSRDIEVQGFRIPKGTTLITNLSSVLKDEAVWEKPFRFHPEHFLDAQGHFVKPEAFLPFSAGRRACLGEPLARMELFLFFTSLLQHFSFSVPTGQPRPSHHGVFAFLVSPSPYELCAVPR
UniProt P11712, whole entry: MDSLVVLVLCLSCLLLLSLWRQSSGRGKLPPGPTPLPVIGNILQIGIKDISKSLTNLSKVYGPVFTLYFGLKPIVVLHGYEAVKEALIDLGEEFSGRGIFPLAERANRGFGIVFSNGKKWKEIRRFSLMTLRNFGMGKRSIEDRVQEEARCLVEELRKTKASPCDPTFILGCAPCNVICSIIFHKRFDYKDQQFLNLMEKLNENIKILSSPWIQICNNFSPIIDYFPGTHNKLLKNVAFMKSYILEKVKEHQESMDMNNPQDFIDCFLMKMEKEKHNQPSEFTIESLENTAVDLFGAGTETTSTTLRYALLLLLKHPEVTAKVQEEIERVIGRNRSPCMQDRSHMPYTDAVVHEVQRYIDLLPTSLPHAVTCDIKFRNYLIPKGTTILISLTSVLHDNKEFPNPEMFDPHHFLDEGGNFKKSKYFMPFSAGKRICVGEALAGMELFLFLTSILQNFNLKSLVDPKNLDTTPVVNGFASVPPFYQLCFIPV
UniProt P08684, whole entry: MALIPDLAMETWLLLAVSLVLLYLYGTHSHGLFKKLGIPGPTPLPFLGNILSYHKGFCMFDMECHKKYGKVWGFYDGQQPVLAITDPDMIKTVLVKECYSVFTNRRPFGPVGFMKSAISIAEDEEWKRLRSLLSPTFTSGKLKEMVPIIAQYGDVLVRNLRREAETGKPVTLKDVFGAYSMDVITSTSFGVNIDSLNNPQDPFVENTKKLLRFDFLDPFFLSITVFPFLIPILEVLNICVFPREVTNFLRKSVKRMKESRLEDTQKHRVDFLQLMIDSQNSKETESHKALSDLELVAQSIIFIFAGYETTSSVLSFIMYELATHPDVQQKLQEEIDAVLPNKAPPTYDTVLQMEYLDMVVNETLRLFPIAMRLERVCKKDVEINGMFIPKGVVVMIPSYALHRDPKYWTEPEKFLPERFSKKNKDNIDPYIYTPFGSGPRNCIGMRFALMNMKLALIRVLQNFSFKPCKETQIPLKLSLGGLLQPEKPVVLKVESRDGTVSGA
UniProt Q12809, whole entry: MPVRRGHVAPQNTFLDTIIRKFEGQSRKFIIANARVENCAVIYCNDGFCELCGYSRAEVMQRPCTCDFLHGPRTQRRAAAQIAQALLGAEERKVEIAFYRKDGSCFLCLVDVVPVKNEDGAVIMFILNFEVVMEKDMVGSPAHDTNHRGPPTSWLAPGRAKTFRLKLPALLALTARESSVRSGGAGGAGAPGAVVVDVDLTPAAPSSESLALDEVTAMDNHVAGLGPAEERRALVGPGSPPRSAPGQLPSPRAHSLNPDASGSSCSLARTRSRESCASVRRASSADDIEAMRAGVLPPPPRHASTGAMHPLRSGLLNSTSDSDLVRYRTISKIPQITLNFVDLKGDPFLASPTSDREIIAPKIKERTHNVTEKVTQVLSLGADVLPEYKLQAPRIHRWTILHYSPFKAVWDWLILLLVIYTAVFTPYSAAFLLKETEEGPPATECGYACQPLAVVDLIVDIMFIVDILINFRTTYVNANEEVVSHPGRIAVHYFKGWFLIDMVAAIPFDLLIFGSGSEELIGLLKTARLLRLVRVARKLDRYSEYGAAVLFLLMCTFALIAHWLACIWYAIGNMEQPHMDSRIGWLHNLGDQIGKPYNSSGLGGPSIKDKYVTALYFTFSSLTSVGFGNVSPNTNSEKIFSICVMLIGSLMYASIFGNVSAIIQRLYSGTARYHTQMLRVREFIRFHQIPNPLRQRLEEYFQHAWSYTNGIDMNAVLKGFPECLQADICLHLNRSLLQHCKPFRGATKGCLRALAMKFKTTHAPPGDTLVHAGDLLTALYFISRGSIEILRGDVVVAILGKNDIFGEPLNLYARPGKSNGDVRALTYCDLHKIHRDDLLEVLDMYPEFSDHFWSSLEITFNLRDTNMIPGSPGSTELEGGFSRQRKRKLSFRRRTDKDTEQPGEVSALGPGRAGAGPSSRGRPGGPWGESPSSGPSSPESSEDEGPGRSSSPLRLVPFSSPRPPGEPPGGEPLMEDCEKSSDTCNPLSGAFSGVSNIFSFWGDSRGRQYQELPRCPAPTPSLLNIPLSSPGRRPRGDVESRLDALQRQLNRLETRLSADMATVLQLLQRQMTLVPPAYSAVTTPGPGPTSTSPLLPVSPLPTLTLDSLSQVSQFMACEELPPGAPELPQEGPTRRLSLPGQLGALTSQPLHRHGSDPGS
UniProt P05177, whole entry: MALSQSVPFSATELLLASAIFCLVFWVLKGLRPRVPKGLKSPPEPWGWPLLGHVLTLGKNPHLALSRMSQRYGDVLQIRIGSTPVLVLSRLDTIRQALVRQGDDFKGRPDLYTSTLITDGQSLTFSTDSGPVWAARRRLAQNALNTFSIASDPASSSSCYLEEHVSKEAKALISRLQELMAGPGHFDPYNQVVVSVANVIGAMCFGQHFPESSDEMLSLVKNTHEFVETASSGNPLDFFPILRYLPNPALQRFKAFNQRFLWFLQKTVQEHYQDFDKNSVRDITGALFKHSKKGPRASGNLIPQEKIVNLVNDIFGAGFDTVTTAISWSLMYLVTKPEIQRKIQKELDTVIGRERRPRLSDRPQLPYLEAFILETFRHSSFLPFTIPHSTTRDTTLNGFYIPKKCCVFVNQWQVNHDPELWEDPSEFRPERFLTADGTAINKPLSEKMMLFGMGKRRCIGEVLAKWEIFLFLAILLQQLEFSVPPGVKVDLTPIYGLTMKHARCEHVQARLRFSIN
UniProt P20813, whole entry: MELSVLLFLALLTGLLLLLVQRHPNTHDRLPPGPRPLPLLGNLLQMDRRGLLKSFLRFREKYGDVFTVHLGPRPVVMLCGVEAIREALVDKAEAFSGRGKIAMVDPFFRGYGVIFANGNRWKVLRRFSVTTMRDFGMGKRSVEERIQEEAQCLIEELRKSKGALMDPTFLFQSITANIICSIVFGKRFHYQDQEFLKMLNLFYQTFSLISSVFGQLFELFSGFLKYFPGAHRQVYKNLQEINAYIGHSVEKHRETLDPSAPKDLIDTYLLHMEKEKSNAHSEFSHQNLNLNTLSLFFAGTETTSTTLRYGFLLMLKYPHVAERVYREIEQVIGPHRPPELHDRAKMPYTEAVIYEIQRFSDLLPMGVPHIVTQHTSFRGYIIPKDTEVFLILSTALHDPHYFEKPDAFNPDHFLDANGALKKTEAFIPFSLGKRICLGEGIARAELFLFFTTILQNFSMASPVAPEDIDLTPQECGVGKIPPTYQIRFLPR
UniProt P10632, whole entry: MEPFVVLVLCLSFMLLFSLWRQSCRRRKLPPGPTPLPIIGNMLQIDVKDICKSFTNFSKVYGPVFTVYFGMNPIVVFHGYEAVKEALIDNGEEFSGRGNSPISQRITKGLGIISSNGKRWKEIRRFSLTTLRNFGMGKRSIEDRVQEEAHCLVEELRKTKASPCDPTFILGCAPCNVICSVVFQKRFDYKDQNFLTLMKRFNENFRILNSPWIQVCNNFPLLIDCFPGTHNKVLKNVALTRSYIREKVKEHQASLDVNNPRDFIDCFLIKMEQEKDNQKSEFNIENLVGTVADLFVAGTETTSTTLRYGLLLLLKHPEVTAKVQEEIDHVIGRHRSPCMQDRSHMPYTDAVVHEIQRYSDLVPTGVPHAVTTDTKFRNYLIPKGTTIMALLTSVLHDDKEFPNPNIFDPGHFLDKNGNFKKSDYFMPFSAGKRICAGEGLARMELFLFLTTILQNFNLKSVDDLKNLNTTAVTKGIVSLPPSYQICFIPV
UniProt P33261, whole entry: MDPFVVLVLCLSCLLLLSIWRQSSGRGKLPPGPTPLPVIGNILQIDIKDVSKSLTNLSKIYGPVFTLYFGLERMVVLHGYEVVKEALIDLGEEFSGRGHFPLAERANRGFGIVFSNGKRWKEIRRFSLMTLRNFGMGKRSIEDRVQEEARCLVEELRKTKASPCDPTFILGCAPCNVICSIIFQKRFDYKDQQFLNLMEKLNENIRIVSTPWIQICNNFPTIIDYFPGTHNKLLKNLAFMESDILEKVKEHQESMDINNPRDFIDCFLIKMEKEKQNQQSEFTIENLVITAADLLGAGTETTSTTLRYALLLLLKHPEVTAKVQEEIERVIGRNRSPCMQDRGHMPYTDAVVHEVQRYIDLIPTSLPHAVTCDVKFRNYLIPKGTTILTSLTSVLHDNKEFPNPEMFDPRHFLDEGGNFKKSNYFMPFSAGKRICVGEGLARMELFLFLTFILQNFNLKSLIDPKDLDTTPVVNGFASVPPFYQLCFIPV

## CCCS(=O)(=O)Nc1cccc(Cc2c(CN(C)CC)c3cc(Cl)c(OC(=O)N(C)C)cc3oc2=O)c1F
[1]
  CYP-2D6 (Dextromethorphan) mean percentage CYP inhibition: 8.3%
[2]
  CYP-2C9 (Diclofenac) mean percentage CYP inhibition: 17.1%
[3]
  CYP-3A4 (Midazolam) mean percentage CYP inhibition: 13.5%
  CYP-3A4 (Testosterone) mean percentage CYP inhibition: 38.8%
[4]
  T1/2: 142 h
  % Remaining at T120: 98.1%
[5]
  IC50: 5.6 µM
[6]
  % Remaining At T120: 56.0%
  CLint (L/hr/kg): 6.86 L/h/kg
  CLint (mL/min/kg): 114 mL/min/kg
  T1/2: 2.38 h
[7]
  T1/2: >2 h
  % Remaining at T120: 102.6%
[8]
  % Remaining At T120: 27.9%
  CLint (L/hr/kg): 3.44 L/h/kg
  CLint (mL/min/kg): 57.4 mL/min/kg
  T1/2: 1.09 h
[9]
  CYP-1A2 (Phenacetin) mean percentage CYP inhibition: −3.1%
[10]
  AUC0-t: 0.416 µg·h/mL
  AUC0-∞: 0.434 µg·h/mL
  Cmax: 0.857 µg/mL
  T1/2: 0.9 h
  Tmax: 0.083 h
[11]
  T1/2: >2 h
  % Remaining at T120: 98.4%
[12]
  CYP-2B6 (Bupropion) mean percentage CYP inhibition: −2.3%
[13]
  Kinetic Solubility: >80 µM
[14]
  T1/2: 5.28 h
  % Remaining at T120: 74.9%
[15]
  CYP-2C8 (Amodiaquine) mean percentage CYP inhibition: 7.1%
[16]
  % Remaining At T120: 41.9%
  CLint (L/hr/kg): 4.68 L/h/kg
  CLint (mL/min/kg): 78.0 mL/min/kg
  T1/2: 1.59 h
[17]
  % Remaining At T120: 13.7%
  CLint (L/hr/kg): 8.05 L/h/kg
  CLint (mL/min/kg): 134 mL/min/kg
  T1/2: 0.697 h
[18]
  A − B Permeability Ranking: Higher
  Mean Papp A − B (10^−6 cm/s): 20.5 10^−6 cm/s
  Mean Papp B − A (10^−6 cm/s): 16.7 10^−6 cm/s
[19]
  T1/2: 59.02 h
  % Remaining at T120: 97.0%
[20]
  CYP-2C19 (Mephenytoin) mean percentage CYP inhibition: 19.1%
[21]
  CLint (L/hr/kg): 3.06 L/h/kg
  CLint (mL/min/kg): 51.0 mL/min/kg
  % Remaining At T120: 32.2%
  T1/2: 1.22 h

## CNS(=O)(=O)Nc1cccc(Cc2c(CN3CC(F)(F)C3)c3ccc(OC(=O)N(C)C)cc3oc2=O)c1F
[1]
  CYP-2D6 (Dextromethorphan) mean percentage CYP inhibition: 11.1%
[2]
  CYP-2C9 (Diclofenac) mean percentage CYP inhibition: 32.0%
[3]
  CYP-3A4 (Midazolam) mean percentage CYP inhibition: 28.4%
  CYP-3A4 (Testosterone) mean percentage CYP inhibition: 32.0%
[4]
  T1/2: 65.68 h
  % Remaining at T120: 97.9%
[5]
  IC50: 13.1 µM
[6]
  % Remaining At T120: 74.4%
  CLint (L/hr/kg): 3.50 L/h/kg
  CLint (mL/min/kg): 58.3 mL/min/kg
  T1/2: 4.68 h
[7]
  T1/2: 59 h
  % Remaining at T120: 95.0%
[8]
  % Remaining At T120: 48.6%
  CLint (L/hr/kg): 1.95 L/h/kg
  CLint (mL/min/kg): 32.5 mL/min/kg
  T1/2: 1.92 h
[9]
  CYP-1A2 (Phenacetin) mean percentage CYP inhibition: 8.2%
[10]
  AUC0-t: 0.0232 µg·h/mL
  Cmax: 0.0049 µg/mL
  Tmax: 0.5 h
[11]
  T1/2: 10 h
  % Remaining at T120: 89.2%
[12]
  CYP-2B6 (Bupropion) mean percentage CYP inhibition: 2.0%
[13]
  Kinetic Solubility: >80 µM
[14]
  T1/2: 12.4 h
  % Remaining at T120: 89.8%
[15]
  CYP-2C8 (Amodiaquine) mean percentage CYP inhibition: 59.6%
[16]
  % Remaining At T120: 52.1%
  CLint (L/hr/kg): 3.50 L/h/kg
  CLint (mL/min/kg): 58.4 mL/min/kg
  T1/2: 2.13 h
[17]
  % Remaining At T120: 74.0%
  CLint (L/hr/kg): 1.22 L/h/kg
  CLint (mL/min/kg): 20.3 mL/min/kg
  T1/2: 4.6 h
[18]
  A − B Permeability Ranking: Lower
  Mean Papp A − B (10^−6 cm/s): 0.240 10^−6 cm/s
  Mean Papp B − A (10^−6 cm/s): 8.54 10^−6 cm/s
[19]
  T1/2: >2 h
  % Remaining at T120: 95.4%
[20]
  CYP-2C19 (Mephenytoin) mean percentage CYP inhibition: 36.9%
[21]
  CLint (L/hr/kg): 0.106 L/h/kg
  CLint (mL/min/kg): 1.77 mL/min/kg
  % Remaining At T120: 96.2%
  T1/2: 35.33 h

From US20250179057A1, “MEK IMMUNE ONCOLOGY INHIBITORS AND THERAPEUTIC USES THEREOF” (Immuneering Corporation, priority 2022, published 2025)
